Laboratory results published in patent US5280119A, “Heterocyclic amine-boranes, and method of inhibiting DNA topoisomerase activity and/or combatting inflammation, hyperlipidemia, and/or neoplasia using amine-borane compounds” (dated 1994).
Converted amounts (≈) assume the structure as drawn.

Key:
[1] = system: P388 lymphocytic leukemia; assay: Cytotoxicity, P388 lymphocytic leukemia; conditions: for ED50 Cytotoxicity, P388 Lymphocytic Leukemia: p388 cells
[2] = system: murine L1210 lymphoid leukemia; assay: Cytotoxicity, L1210 lymphoid leukemia; conditions: trypan blue exclusion
[3] = system: HeLa-S^3 suspended cervical carcinoma; assay: Cytotoxicity, HeLa-S3; conditions: hela-s3 cells
[4] = system: KB epidermoid nasopharynx; assay: Cytotoxicity, KB epidermoid nasopharynx; conditions: for ED50 Cytotoxicity, Human KB: kb cells
[5] = system: colorectal adenocarcinoma SW480; assay: Cytotoxicity, colorectal adenocarcinoma SW480; conditions: for ED50 Cytotoxicity, Human Colon SW480: sw480 cells; for activity against human adenocarcinoma colorectal SW480 growth (in words): text summary of Table 4
[6] = system: lung bronchogenic MB-9812; assay: Cytotoxicity, lung bronchogenic MB-9812; conditions: concentration which inhibits 50% of cell growth
[7] = system: human Tmolt3 acute lymphoblastic T cell leukemia; assay: Cytotoxicity, Tmolt3; conditions: trypan blue exclusion
glioma EH 118 MG = assay: Cytotoxicity, glioma EH 118 MG; conditions: eh 118 mg cells
[8] = Hypolipidemic screen in normal rats (serum lipids, body weight, food); conditions: Sprague Dawley male rats, 8 mg/kd/day orally (clofibrate 150 mg/kg/day)
osteosarcoma TE418 = assay: Cytotoxicity, osteosarcoma TE418; conditions: for ED50 Cytotoxicity, Human Osteo-Sarcoma: te418 cells
[9] = Hypolipidemic screen in normal mice; conditions: CF1 male mice, IP; for Serum Cholesterol Day 9 / Serum Cholesterol Day 16 / Serum Triglycerides Day 16: N = 6
[10] = Anti-inflammatory activity, carrageenan paw; conditions: CF1 Mice, 20 mg/kg × 2 (table head; b1373: 8 mg/kg i.p. 3 hours and 30 minutes before carrageenan)
Lewis lung carcinoma = assay: In vivo Lewis lung carcinoma activity; conditions: 8 mg/kg/day I.P.
[11] = system: Ehrlich ascites carcinoma; assay: in vivo Ehrlich ascites carcinoma screen; conditions: 20 mg/kg/day I.P., CF1 male mice

Structure (SMILES)	ED50 Cytotoxicity, P388 Lymphocytic Leukemia [1]	ED50 Cytotoxicity, L1210 Lymphoid Leukemia [2]	ED50 Cytotoxicity, Human HeLa-S^3 [3]	ED50 Cytotoxicity, Human KB [4]	ED50 Cytotoxicity, Human Colon SW480 [5]	ED50 Cytotoxicity, Human Lung Bronchogenic [6]	ED50 Cytotoxicity, Human lymphocyte Tmolt3 [7]	ED50 Cytotoxicity, Human Glioma (glioma EH 118 MG)	ED50 Cytotoxicity, Human Osteo-Sarcoma (osteosarcoma TE418)	% of Control, anti-inflammatory (paw weight increase) [10]	also measured
Nc1ccn([C@@H]2O[C@H](CO)[C@@H](O)[C@@H]2O)c(=O)n1	4.06 µg/mL (≈ 16.7 µM)	2.76 µg/mL (≈ 11.3 µM)	2.13 µg/mL (≈ 8.76 µM)	2.54 µg/mL (≈ 10.4 µM)	3.42 µg/mL (≈ 14.1 µM)	4.60 µg/mL (≈ 18.9 µM)	2.67 µg/mL (≈ 11 µM)	1.88 µg/mL (≈ 7.73 µM)	–	–	–
O=c1[nH]cc(F)c(=O)[nH]1	–	1.41 µg/mL (≈ 10.8 µM)	2.47 µg/mL (≈ 19 µM)	1.25 µg/mL (≈ 9.61 µM)	3.09 µg/mL (≈ 23.8 µM)	–	2.14 µg/mL (≈ 16.5 µM)	1.28 µg/mL (≈ 9.84 µM)	–	–	–
CC[C@H](C)C(=O)O[C@H]1C[C@@H](C)C=C2C=C[C@H](C)[C@H](CC[C@@H]3C[C@@H](O)CC(=O)O3)[C@H]21	–	–	–	–	–	–	–	–	–	–	Serum Cholesterol Day 7 [8]: 85 ± 4% of Control; Serum Cholesterol Day 14 [8]: 82 ± 5% of Control; Serum Triglycerides Day 7 [8]: 91 ± 5% of Control; Serum Triglycerides Day 14 [8]: 86 ± 7% of Control
N#C[BH2-][NH+]1CCNCC1	9.93 µg/mL (≈ 79.5 µM)	3.67 µg/mL (≈ 29.4 µM)	2.56 µg/mL (≈ 20.5 µM)	7.42 µg/mL (≈ 59.4 µM)	7.21 µg/mL (≈ 57.7 µM)	6.02 µg/mL (≈ 48.2 µM)	1.08 µg/mL (≈ 8.64 µM)	3.98 µg/mL (≈ 31.8 µM)	3.64 µg/mL (≈ 29.1 µM)	83 % of Control	Serum Cholesterol Day 9 ([9]; 8 Mg/kg/day): 66 ± 5% of Control; Serum Cholesterol Day 16 ([9]; 8 Mg/kg/day): 66 ± 6% of Control; Serum Triglycerides Day 16 ([9]; 8 Mg/kg/day): 69 ± 5% of Control; T/C%, in vivo Lewis lung carcinoma (Lewis lung carcinoma): inactive
CCOC(=O)C(C)(C)Oc1ccc(Cl)cc1	–	–	–	–	–	–	–	–	–	–	Serum Cholesterol Day 9 ([9]; 150 Mg/kg/day): 88 ± 7% of Control; Serum Cholesterol Day 16 ([9]; 150 Mg/kg/day): 86 ± 6% of Control; Serum Triglycerides Day 16 ([9]; 150 Mg/kg/day): 75 ± 5% of Control; Serum Cholesterol Day 7 [8]: 89 ± 7% of Control; Serum Cholesterol Day 14 [8]: 86 ± 5% of Control; Serum Triglycerides Day 7 [8]: 83 ± 6% of Control; Serum Triglycerides Day 14 [8]: 74 ± 7% of Control
COC(=O)[BH2-][n+]1ccn(C)c1	5.63 µg/mL (≈ 36.6 µM)	3.69 µg/mL (≈ 24 µM)	3.47 µg/mL (≈ 22.5 µM)	6.54 µg/mL (≈ 42.5 µM)	4.06 µg/mL (≈ 26.4 µM)	1.76 µg/mL (≈ 11.4 µM)	1.08 µg/mL (≈ 7.01 µM)	1.715 µg/mL (≈ 11.1 µM)	6.89 µg/mL (≈ 44.7 µM)	76 % of Control	inhibition of growth, in vivo Ehrlich ascites carcinoma [11]: 99%; Serum Cholesterol Day 9 ([9]; 8 Mg/kg/day): 72 ± 6% of Control; Serum Cholesterol Day 16 ([9]; 8 Mg/kg/day): 66 ± 6% of Control; Serum Triglycerides Day 16 ([9]; 8 Mg/kg/day): 92 ± 7% of Control; T/C%, in vivo Lewis lung carcinoma (Lewis lung carcinoma): 152%
C[N+]1([BH2-]C#N)CCOCC1	3.64 µg/mL (≈ 26 µM)	4.06 µg/mL (≈ 29 µM)	2.30 µg/mL (≈ 16.4 µM)	6.39 µg/mL (≈ 45.6 µM)	6.22 µg/mL (≈ 44.4 µM)	5.37 µg/mL (≈ 38.4 µM)	1.63 µg/mL (≈ 11.6 µM)	2.57 µg/mL (≈ 18.4 µM)	6.24 µg/mL (≈ 44.6 µM)	91 % of Control	activity in the murine P388 lymphocytic screen (in words) ([1]; text summary of Table 4): active; inhibition of growth, in vivo Ehrlich ascites carcinoma [11]: 100%; Serum Cholesterol Day 9 ([9]; 5 Mg/kg/day): 84 ± 7% of Control; Serum Cholesterol Day 16 ([9]; 5 Mg/kg/day): 73 ± 8% of Control; Serum Triglycerides Day 16 ([9]; 5 Mg/kg/day): 95 ± 11% of Control
[BH3-][NH+]1CCOCC1	4.49 µg/mL (≈ 44.5 µM)	3.75 µg/mL (≈ 37.1 µM)	2.24 µg/mL (≈ 22.2 µM)	6.31 µg/mL (≈ 62.5 µM)	3.99 µg/mL (≈ 39.5 µM)	6.03 µg/mL (≈ 59.7 µM)	3.53 µg/mL (≈ 35 µM)	8.36 µg/mL (≈ 82.8 µM)	3.31 µg/mL (≈ 32.8 µM)	55 % of Control	activity against human adenocarcinoma colorectal SW480 growth (in words) [5]: showed activity; Serum Cholesterol Day 9 ([9]; 20 Mg/kg/day): 67 ± 6% of Control; Serum Cholesterol Day 16 ([9]; 20 Mg/kg/day): 64 ± 5% of Control; Serum Triglycerides Day 16 ([9]; 20 Mg/kg/day): 74 ± 9% of Control
C[N+](C)(C)[BH2-]C(=O)n1ccnc1	4.88 µg/mL (≈ 29.2 µM)	1.78 µg/mL (≈ 10.7 µM)	2.46 µg/mL (≈ 14.7 µM)	1.85 µg/mL (≈ 11.1 µM)	1.69 µg/mL (≈ 10.1 µM)	1.28 µg/mL (≈ 7.66 µM)	2.17 µg/mL (≈ 13 µM)	0.472 µg/mL (≈ 2.83 µM)	1.92 µg/mL (≈ 11.5 µM)	86 % of Control	inhibition of growth, in vivo Ehrlich ascites carcinoma [11]: 71%; activity in the KB nasopharynx screen (in words) ([4]; text summary of Table 4): good activity; inhibition of growth of human osteosarcoma (in words) (osteosarcoma TE418; text summary of Table 4): significantly inhibited; activity against human adenocarcinoma colorectal SW480 growth (in words) [5]: showed activity; Serum Cholesterol Day 9 ([9]; 8 Mg/kg/day): 72 ± 7% of Control; Serum Cholesterol Day 16 ([9]; 8 Mg/kg/day): 68 ± 5% of Control; Serum Triglycerides Day 16 ([9]; 8 Mg/kg/day): 57 ± 5% of Control; serum triglyceride levels lowered ([9]; doses of Table 6): 43%
NC(=O)NO	–	2.67 µg/mL (≈ 35.1 µM)	1.96 µg/mL (≈ 25.8 µM)	5.29 µg/mL (≈ 69.6 µM)	4.76 µg/mL (≈ 62.6 µM)	7.33 µg/mL (≈ 96.4 µM)	3.18 µg/mL (≈ 41.8 µM)	2.27 µg/mL (≈ 29.8 µM)	7.57 µg/mL (≈ 99.5 µM)	–	–
N#C[BH2-][NH+]1CCCCC1	4.49 µg/mL (≈ 36.2 µM)	3.83 µg/mL (≈ 30.9 µM)	2.35 µg/mL (≈ 19 µM)	7.74 µg/mL (≈ 62.4 µM)	6.32 µg/mL (≈ 51 µM)	5.41 µg/mL (≈ 43.6 µM)	2.85 µg/mL (≈ 23 µM)	4.93 µg/mL (≈ 39.8 µM)	2.97 µg/mL (≈ 24 µM)	77 % of Control	Serum Cholesterol Day 9 ([9]; 5 Mg/kg/day): 81 ± 8% of Control; Serum Cholesterol Day 16 ([9]; 5 Mg/kg/day): 66 ± 3% of Control; Serum Triglycerides Day 16 ([9]; 5 Mg/kg/day): 70 ± 7% of Control
NC1(C(=O)O)CCCC1	–	3.08 µg/mL (≈ 23.8 µM)	2.38 µg/mL (≈ 18.4 µM)	5.71 µg/mL (≈ 44.2 µM)	3.81 µg/mL (≈ 29.5 µM)	4.36 µg/mL (≈ 33.8 µM)	2.38 µg/mL (≈ 18.4 µM)	5.89 µg/mL (≈ 45.6 µM)	6.18 µg/mL (≈ 47.8 µM)	–	–
